“Also recorded” adds a separate entry of the source. Read-outs that look alike come from different tables or passages of the source.
Type: in vivo, human
Conditions: with vs without concomitant clarithromycin

SMILES: COc1ccc(-n2nc(C(N)=O)c3c2C(=O)N(c2ccc(N4CCCCC4=O)cc2)CC3)cc1 [Apixaban]
- change in tmax and half-life of apixaban: unchanged
- change in tmax and half-life of apixaban (listed as apixaban): comparable; also recorded: no change; also recorded: little to no impact

Source: PMC6885504 (American Journal of Cardiovascular Drugs, 2019)
